High-throughput results (PubChem BioAssay)
Cneo AK release – causes C. neoformans cell lysis | adenylate kinase release luminescence, 4 h; normalised: neutral wells 0, clomiphene wells 100 | lysis activity, % at 15 µM | actives 0.2% (n = 360,000) | AID 651654;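 active = mean lysis activity across replicates of at least 80%, whatever share of replicates individually reach that level; inactive = mean lysis activity below 80%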
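Test system: log-phase Cryptococcus neoformans yeast cells; Quantity: yeast cell density of 5 × 10^6 cells/mL; Buffer or medium: YPD; Doses: single compound concentration per well; Timing: 4 h at 37 °C static, read 1 h later; Measured by: AK luminescence; Read-out basis: lysis from increased AK signal; Control set: Clomiphene as positive control.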
DENV2 CPE – protects cells from dengue virus 2 cytopathic effect | DENV2-infected cells, cytopathic effect rescue, plate reader | CPE inhibition, % at 9.99 µM | actives 1.7% (n = 350,000); in the data active = CPE inhibition above about 20%, passing the limit was not always enough; inconclusive = no clear call, values can overlap the other calls; tested in BHK-21 cells;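 note: 0% = median of neutral control wells and 100% = median of positive control wells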
UUG fidelity – modulators of start codon recognition fidelity in yeast; AID 602363; activity score, % at 18.7 µM; S. cerevisiae UUG-firefly luciferase reporter, luminescence/redox ratio; actives 0.13% (n = 350,000);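 active = replicate mean at a twofold rise or more, about +100% in these data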;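 note: firefly luciferase made from a UUG start codon reports start codon fidelity; reporter light over untreated wells divided by growth signal over untreated wells; some hits fall short of that in this replicate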
E-selectin induc – E-selectin induction on HUVECs; P16581; HUVEC E-selectin immunofluorescence imaging; normalized: neutral wells 0, TNF-alpha wells 100; activation, % at 7.58 µM; actives 0.37% (n = 260,000); AID 686992;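 active = mean E-selectin-positive cell signal at least 10% of the positive control, reached in at least 60% of replicates, without over 20% cell loss; inconclusive = no rule given, readout overlaps actives, possibly toxicity-flagged; inactive = the rest, including those meeting only one limit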
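System: HUVEC / Compound: single concentration / Signal: immunofluorescence imaging / Read-out: percent E-selectin-positive cells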
* hit, by the source's call; ? = inconclusive; . = not tested or not shown. Sampled rows, rich in hits. Any-hit rate of the full collection: about 1.8%.

cpd | Compound | Cneo AK release | DENV2 CPE
1 | C[C@@H]1CN([C@@H](C)CO)C(=O)Cc2cc(NS(=O)(=O)c3ccc(Cl)cc3)ccc2O[C@H]1CN(C)S(=O)(=O)c1ccc(F)cc1 | 0 | -6
2 | C[C@H]1CN([C@@H](C)CO)C(=O)Cc2cc(NS(=O)(=O)c3ccc(F)cc3)ccc2O[C@@H]1CN(C)S(=O)(=O)c1ccc(Cl)cc1 | 0 | 17
3 | CO[C@H]1CN(C)C(=O)c2cc(NC(C)=O)ccc2OC[C@H](C)N(C(=O)C2CCCCC2)C[C@@H]1C | 2 | -1
4 | O=C(C[C@@H]1C=C[C@H](NC(=O)Cc2ccccn2)[C@H](CO)O1)NCCCN1CCOCC1 | -4 | 33*
5 | O=C(C[C@@H]1C=C[C@@H](NC(=O)Nc2cc(F)ccc2F)[C@H](CO)O1)NCCCN1CCOCC1 | 103* | -4
6 | O=C(C[C@@H]1C=C[C@H](NC(=O)Cc2ccccn2)[C@@H](CO)O1)NCCCN1CCOCC1 | 0 | -4
7 | O=C(C[C@@H]1C=C[C@@H](NC(=O)Cc2ccccn2)[C@H](CO)O1)NCCCN1CCOCC1 | -1 | 38*
8 | O=C(C[C@@H]1C=C[C@@H](NC(=O)Nc2cc(F)ccc2F)[C@@H](CO)O1)NCCCN1CCOCC1 | 27 | 2
9 | CC1(C)c2[nH]c3ccccc3c2C[C@@H]2C(=O)N(Cc3ccc(F)cc3)C(=O)N21 | 1 | -15
10 | CC[C@H]1c2[nH]c3ccccc3c2C[C@H]2C(=O)N(c3ccc(F)cc3)C(=O)N21 | -1 | 57*
11 | C[C@@H]1CN([C@H](C)CO)C(=O)Cc2cc(NC(=O)Nc3ccccc3)ccc2O[C@@H]1CN(C)Cc1ccc(C(=O)Nc2ccccc2N)cc1 | . | .
12 | COC(=O)C1=C(C)N(Cc2ccc(Br)cc2)C(=S)NC1c1cccc(Br)c1 (stereo not given) | . | 42*

cpd | UUG fidelity | E-selectin induc
1 | 13 | 0
2 | 5 | 60*
3 | 2 | 0
4 | 0 | 0
5 | 16 | 0
6 | -9 | 0
7 | -17 | 0
8 | -7 | 0
9 | -10 | 1
10 | -6 | .
11 | . | 1
12 | . | 0

An excerpt from above in order of their number in DENV2 CPE, largest number first:
entry	SMILES	DENV2 CPE
4	O=C(C[C@@H]1C=C[C@H](NC(=O)Cc2ccccn2)[C@H](CO)O1)NCCCN1CCOCC1	33*
6	O=C(C[C@@H]1C=C[C@H](NC(=O)Cc2ccccn2)[C@@H](CO)O1)NCCCN1CCOCC1	-4
1	C[C@@H]1CN([C@@H](C)CO)C(=O)Cc2cc(NS(=O)(=O)c3ccc(Cl)cc3)ccc2O[C@H]1CN(C)S(=O)(=O)c1ccc(F)cc1	-6

(next part)
cpd | Compound | Cneo AK release | DENV2 CPE
13 | COC(=O)C1=C(C)N(Cc2ccc(Cl)cc2)C(=S)NC1c1ccc(F)cc1 (stereo not given) | . | 10
14 | COC(=O)C1=C(C)N(Cc2ccc(Cl)cc2)C(=S)NC1c1ccc(Br)cc1 (stereo not given) | . | 25*
15 | CCCCCN(C(=O)CCc1cn(CCCCC)c2ccccc12)c1ccc(Oc2cccnc2)cc1 | . | 91*
16 | CCn1c2ccccc2c2cc(NC(=O)CSc3nnnn3-c3ccccc3)ccc21 | -1 | .
17 | OC(CSc1nnnn1-c1ccccc1)Cn1c2ccccc2c2ccccc21 (stereo not given) | . | 21*
18 | CCOC(=O)c1c(CC(C)C)csc1/N=C/C1C(=O)CCCC1=O | . | ?
19 | CCOC(=O)c1c(/N=C/C2C(=O)CCCC2=O)sc2c1CCCC2 | . | 4
20 | C=CC[C@@H](CC(=O)N[C@H](CO)Cc1ccccc1)C(=O)N[C@@H](COC(=O)[C@H](CC=C)CC(=O)OC(C)(C)C)Cc1ccccc1 | 0 | 79*
21 | C=CCC[C@@H](Cc1ccc(F)cc1)C(=O)OC[C@H]1CCCN1C(=O)[C@@H](CC=C)CC(=O)N[C@H](CO)Cc1ccccc1 | -1 | -3
22 | C=CC[C@H](CC(=O)N[C@H](CO)Cc1ccccc1)C(=O)N[C@H](COC(=O)[C@@H](CC=C)Cc1ccc(F)cc1)Cc1c[nH]c2ccccc12 | -3 | .
23 | C=CC[C@@H](CC(=O)N[C@@H](CO)Cc1ccccc1)C(=O)N[C@@H](COC(=O)[C@@H](CC=C)Cc1ccc(F)cc1)Cc1c[nH]c2ccccc12 | -1 | 73*
24 | C=CCC[C@@H](Cc1ccc(F)cc1)C(=O)OC[C@@H]1CCCN1C(=O)[C@H](CC=C)CC(=O)N[C@H](CO)Cc1ccccc1 | 5 | 20*

cpd | UUG fidelity | E-selectin induc
13 | . | 0
14 | . | 1
15 | . | 0
16 | -21 | .
17 | . | 0
18 | . | 33*
19 | . | .
20 | -7 | 0
21 | 5 | 0
22 | -22 | .
23 | -10 | 0
24 | 10 | 0

cpd | Compound | Cneo AK release | DENV2 CPE
25 | CCOC(=O)Cc1sc(N)nc1C | -2 | 41*
26 | COc1ccc(NC(=O)N(C)C[C@@H]2Oc3ccc(NC(=O)C4CCCCC4)cc3CC(=O)N([C@@H](C)CO)C[C@H]2C)cc1 | -1 | -4
27 | COc1cc(Nc2ccn3nc(-c4ccccc4Cl)cc3n2)cc(OC)c1OC | 0 | 30*
28 | COc1ccccc1-c1cc2nc(NCCOc3ccccc3)ccn2n1 | 8 | 8
29 | Cc1noc(C)c1NC(=O)N(C)C[C@H]1Oc2ncc(C#CC3CC3)cc2C(=O)N([C@H](C)CO)C[C@H]1C | -6 | ?

cpd | UUG fidelity | E-selectin induc
25 | -18 | .
26 | 7 | 0
27 | -7 | 1
28 | -18 | 1
29 | -1 | 0
